Protein sequences, listed by entry. Tags and fused reporters are not part of them. Lines headed by an entry give the natural chain unless they say otherwise; changes in a name come on top.
UniProt P08913: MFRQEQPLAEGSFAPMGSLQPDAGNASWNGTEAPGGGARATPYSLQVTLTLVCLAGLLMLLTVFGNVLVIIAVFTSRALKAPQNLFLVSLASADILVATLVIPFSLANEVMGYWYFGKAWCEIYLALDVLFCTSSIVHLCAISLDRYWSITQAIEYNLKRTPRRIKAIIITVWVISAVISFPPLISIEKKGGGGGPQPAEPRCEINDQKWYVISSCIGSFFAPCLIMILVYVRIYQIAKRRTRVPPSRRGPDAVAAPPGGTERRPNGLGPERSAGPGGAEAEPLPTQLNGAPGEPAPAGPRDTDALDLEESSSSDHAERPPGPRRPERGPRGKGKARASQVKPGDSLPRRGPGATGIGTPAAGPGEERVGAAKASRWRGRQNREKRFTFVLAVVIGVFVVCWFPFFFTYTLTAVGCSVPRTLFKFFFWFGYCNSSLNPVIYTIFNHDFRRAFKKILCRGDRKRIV
UniProt P18825: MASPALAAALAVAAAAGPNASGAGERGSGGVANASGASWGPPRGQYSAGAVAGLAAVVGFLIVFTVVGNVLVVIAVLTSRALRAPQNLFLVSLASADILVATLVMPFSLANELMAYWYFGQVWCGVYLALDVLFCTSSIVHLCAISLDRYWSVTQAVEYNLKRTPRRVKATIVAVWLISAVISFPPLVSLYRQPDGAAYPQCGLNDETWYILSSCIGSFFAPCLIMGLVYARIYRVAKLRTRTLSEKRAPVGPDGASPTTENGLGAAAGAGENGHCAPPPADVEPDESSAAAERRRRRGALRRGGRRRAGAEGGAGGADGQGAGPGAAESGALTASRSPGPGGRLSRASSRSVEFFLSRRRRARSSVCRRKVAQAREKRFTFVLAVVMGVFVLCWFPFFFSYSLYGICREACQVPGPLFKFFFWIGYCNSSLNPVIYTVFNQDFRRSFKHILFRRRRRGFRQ
UniProt P18089: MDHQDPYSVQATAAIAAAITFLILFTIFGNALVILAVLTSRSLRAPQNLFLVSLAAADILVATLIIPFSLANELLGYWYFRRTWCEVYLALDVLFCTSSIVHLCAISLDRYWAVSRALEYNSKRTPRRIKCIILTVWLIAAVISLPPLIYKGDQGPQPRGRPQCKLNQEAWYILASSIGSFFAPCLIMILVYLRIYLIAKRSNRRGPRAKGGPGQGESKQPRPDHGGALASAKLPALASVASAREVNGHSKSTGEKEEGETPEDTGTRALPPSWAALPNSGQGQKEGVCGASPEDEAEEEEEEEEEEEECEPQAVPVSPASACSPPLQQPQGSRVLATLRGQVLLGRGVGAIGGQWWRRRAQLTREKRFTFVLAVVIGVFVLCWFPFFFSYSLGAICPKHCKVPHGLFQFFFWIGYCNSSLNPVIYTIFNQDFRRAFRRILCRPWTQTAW

In ChEMBL document CHEMBL1129794, “Synthesis and evaluation of 2-[(5-methylbenz-1-ox-4-azin-6-yl)imino]imidazoline, a potent, peripherally acting alpha 2 adrenoceptor agonist” (J Med Chem, 1996):

Target: Adrenergic receptor alpha-2 (Homo sapiens, UniProt P08913+P18825+P18089)
Assay type: functional, Oryctolagus cuniculus

SMILES: Nc1cc(Cl)c(N=C2NCCN2)c(Cl)c1 [APRACLONIDINE]
- EC50: 1.9 nM
